Source: patent publication US20240050727A1, “DEVICES FOR FORMING IN SITU MICRONEEDLES AND METHODS THEREOF” (University of Connecticut, priority 2022, published 2024)

Details: VEGF encapsulated in hybrid PEGDA/GelMA hydrogel

vascular endothelial growth factor [VEGF]
release of biomolecules from microneedle biomaterial: sustained long-term release
